In the test the target is MR (Homo sapiens, UniProt P08235). Put plainly: In vitro evaluation of MR antagonistic activity (HEK293/Gal4/MR cell line, Bright Glo). Particulars: read-out: IC50 (nM) for MR; HEK293/Gal4/MR cells, aldosterone final 1 nmol, 24 h incubation.

The chains behind the UniProt entries cited, without tags or fusion partners. Residues count along the entry.
UniProt P08235, 726-984 limits assumed: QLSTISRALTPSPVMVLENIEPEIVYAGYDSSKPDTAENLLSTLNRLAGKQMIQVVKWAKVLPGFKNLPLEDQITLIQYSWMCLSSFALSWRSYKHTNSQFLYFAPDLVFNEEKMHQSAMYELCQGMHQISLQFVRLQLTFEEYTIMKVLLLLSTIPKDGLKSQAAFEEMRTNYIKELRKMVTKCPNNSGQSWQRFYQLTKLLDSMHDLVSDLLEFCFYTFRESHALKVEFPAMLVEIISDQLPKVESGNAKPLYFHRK

Broadly, the IC50 is the concentration at which inhibition is half-maximal. With `CNC(=O)CC1COc2cc(F)ccc2N1Cc1cc(C)c2c(c1)NC(=O)CO2` (centres unmarked), the IC50 was found to be 372 nM. With `Cc1noc(CC2COc3cc(F)cc(F)c3N2Cc2ccc3c(c2)NC(=O)CO3)n1` (single isomer, unassigned), the IC50 is 80 nM.

The record behind these values is patent publication US20250034099A1, “BENZOXAZINONE DERIVATIVES” (CHIA TAI TIANQING PHARMACEUTICAL GROUP CO., LTD., priority 2021, published 2025).
